Usually IC50 stands for the concentration needed to halve the response being measured. Low readings indicate greater potency, high ones weaker potency.

Chains of the proteins cited; added tags and fusions are not shown. Lines headed by an entry give the natural chain unless they say otherwise; changes in a name come on top.
UniProt P0AD68: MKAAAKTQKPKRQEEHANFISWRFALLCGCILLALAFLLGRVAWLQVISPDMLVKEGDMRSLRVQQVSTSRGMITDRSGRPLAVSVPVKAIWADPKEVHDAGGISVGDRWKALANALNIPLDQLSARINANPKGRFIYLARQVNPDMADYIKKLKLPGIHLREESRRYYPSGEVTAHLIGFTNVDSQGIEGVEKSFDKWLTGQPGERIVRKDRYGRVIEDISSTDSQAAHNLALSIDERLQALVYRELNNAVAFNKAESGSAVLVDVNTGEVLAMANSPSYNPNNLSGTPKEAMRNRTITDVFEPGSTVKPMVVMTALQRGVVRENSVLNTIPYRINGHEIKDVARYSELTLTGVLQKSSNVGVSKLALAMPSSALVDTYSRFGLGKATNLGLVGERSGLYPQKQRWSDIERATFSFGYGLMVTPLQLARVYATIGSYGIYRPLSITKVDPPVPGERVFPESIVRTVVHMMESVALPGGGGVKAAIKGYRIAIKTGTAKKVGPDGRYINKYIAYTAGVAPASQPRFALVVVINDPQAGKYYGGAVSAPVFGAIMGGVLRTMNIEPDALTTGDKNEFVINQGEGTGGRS
UniProt P0AD65: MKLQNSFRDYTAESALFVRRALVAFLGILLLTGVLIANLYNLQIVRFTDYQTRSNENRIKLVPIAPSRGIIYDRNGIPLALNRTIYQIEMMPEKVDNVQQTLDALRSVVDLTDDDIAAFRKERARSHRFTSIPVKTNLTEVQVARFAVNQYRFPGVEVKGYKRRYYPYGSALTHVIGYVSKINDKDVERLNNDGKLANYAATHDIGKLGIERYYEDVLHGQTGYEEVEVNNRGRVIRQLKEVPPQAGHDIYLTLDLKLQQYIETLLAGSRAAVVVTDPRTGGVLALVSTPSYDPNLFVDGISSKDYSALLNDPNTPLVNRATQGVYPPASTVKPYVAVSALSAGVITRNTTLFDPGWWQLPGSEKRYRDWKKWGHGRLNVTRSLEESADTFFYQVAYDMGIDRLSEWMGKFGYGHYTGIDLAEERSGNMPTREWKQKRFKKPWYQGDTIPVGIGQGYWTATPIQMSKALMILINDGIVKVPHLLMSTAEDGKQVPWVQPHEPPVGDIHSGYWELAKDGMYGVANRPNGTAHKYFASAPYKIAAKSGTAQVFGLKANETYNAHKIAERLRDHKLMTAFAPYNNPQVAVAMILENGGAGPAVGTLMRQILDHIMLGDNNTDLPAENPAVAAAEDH

Among the data in paper PMC10040144 (ACS infectious diseases, 2022) are IC50 values, retold here.

One assay deals with PBP3 (Escherichia coli, UniProt P0AD68).
The target of a further assay is PBP2 (Escherichia coli, UniProt P0AD65). The assay is classed as cell-based, Escherichia coli MG1655.

In the case of `CC1=C(C(=O)O)N2C(=O)[C@@H](NC(=O)[C@H](N)c3ccccc3)[C@H]2SC1` [cephalexin], the figures for the IC50 on PBP3 and against PBP2 were 210 ± 88 µM and 34 ± 12 µM, respectively.
